In patent US20210087290A1, “COMPOUNDS WHICH SPECIFICALLY BIND TO CD38 FOR USE IN THE TREATMENT OF NEURODEGENERATIVE AND INFLAMMATORY DISEASES” (ENCEFA, priority 2017, published 2021) one finds Brain/plasma ratio and glucose uptake data, which are given here for two substances.

The conditions of data set [1]: in humans; cited from earlier work.
Data set [2] relates to cortical neurons. The data set is described as follows: Measurement of glucose uptake in cortical neurons (2-NBDG). Format: cell-based, Wistar rat. The following applies: acute treatment 30 min, 7 DIV; HB7 1 μg/mL, NAD^+ 3 mM, insulin 100 nM. On the procedure: Animals were treated in accordance with the Guide for the Care and Use of Laboratory Animals (National Research Council, 1996), European Directive 86/609, and the guidelines of the local institutional animal care and use committee. Cultures were prepared from the cortex of gestational age 15.5 Wistar rat embryos (Janvier Breeding Center, Le Genest St Isle, France). Dissociated cells in suspension obtained by mechanical trituration of cortical tissue pieces were seeded onto tissue culture supports precoated with 1 mg/mL polyethylenimine diluted in borate buffer pH 8.3 according to the protocol previously described for mesencephalic cultures. […] They were fed daily by replacing 70% of the medium. […]
Glucose uptake was measured in individual cortical neurons using the fluorescent glucose analogue 2-NBDG (Abcam). […] The fluorescent signal (excitation, 465 nm; emission, 540 nm) was acquired using an Arrayscan (ThermoFischer Scientific) and quantified using ImageJ. The average pixel intensity over the surface of each cell body was determined under the different experimental conditions. Background fluorescence was subtracted from raw data, and the results were expressed as a percentage of mean fluorescence intensity per cell under control conditions. 100 cells were analysed under each test condition.

Turning to “Aducanumab: antibody used to neutralize Aβ peptides”, the Brain/plasma ratio in data set [1] is reported as 1.3%. On to insulin, for which the glucose uptake result in data set [2] was “increased glucose uptake”.
